Columns and labels:
tyrosinase = tyrosinase (Agaricus bisporus, UniProt C7FF04); assay: Enzyme-inhibitory kinetics (Michaelis-Menten fitting with inhibition models); format: biochemical, mushroom; conditions: model chosen by F-test on reduced χ2
mushroom tyrosinase [1] = target: T1, mushroom tyrosinase (Agaricus bisporus, UniProt C7FF04); assay: Differential scanning fluorimetry (DSF) with SYPRO Orange; format: binding; conditions: 500 μM inhibitor; mean ± SD of three experiments; DMSO control 49.16
mushroom tyrosinase [2] = target: T1, mushroom tyrosinase; conditions: cited from earlier work
[3] = target: mushroom tyrosinase from Agaricus bisporus (Agaricus bisporus, UniProt C7FF04); assay: Enzyme-activity assay with mushroom tyrosinase, L-DOPA substrate, dopachrome absorbance at 475 nm; format: biochemical

Sequences of proteins named here, by UniProt entry; tags and fusion partners are left off. Residues count along the entry.
UniProt C7FF04, 1-392: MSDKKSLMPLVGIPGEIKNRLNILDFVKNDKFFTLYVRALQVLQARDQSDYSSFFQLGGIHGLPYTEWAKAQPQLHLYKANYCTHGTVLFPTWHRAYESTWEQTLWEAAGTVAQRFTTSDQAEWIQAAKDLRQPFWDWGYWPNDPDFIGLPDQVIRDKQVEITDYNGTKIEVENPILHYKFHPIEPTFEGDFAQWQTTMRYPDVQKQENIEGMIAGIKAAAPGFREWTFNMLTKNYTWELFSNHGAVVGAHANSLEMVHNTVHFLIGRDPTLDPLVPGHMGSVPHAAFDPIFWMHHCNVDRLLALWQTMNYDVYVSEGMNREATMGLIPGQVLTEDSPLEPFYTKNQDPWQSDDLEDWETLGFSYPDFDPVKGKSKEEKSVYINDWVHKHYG

O=C(CCCCCCC(=O)Nc1ccccc1)NO [Vorinostat, suberanilohydroxamic acid]
Kinetics model (mode of inhibition) (tyrosinase): noncompetitive
Tm (mushroom tyrosinase [1]): 47.50 ± 0.07 °C
Inhibition against mushroom tyrosinase (in words) (mushroom tyrosinase [2]): little inhibition
Ki values as worded in the text (words or range with mixed units) [3]: submicromolar range

Reference: PMC8868331, “Hydroxamic Acid as a Potent Metal-Binding Group for Inhibiting Tyrosinase” (Antioxidants, 2022)
